Consider 25 compounds from patent publication US9273014B2 (dated 2016).

Chains of the proteins cited; added tags and fusions are not shown. Residues count along the entry.
UniProt P46531, 19-2555 limits assumed: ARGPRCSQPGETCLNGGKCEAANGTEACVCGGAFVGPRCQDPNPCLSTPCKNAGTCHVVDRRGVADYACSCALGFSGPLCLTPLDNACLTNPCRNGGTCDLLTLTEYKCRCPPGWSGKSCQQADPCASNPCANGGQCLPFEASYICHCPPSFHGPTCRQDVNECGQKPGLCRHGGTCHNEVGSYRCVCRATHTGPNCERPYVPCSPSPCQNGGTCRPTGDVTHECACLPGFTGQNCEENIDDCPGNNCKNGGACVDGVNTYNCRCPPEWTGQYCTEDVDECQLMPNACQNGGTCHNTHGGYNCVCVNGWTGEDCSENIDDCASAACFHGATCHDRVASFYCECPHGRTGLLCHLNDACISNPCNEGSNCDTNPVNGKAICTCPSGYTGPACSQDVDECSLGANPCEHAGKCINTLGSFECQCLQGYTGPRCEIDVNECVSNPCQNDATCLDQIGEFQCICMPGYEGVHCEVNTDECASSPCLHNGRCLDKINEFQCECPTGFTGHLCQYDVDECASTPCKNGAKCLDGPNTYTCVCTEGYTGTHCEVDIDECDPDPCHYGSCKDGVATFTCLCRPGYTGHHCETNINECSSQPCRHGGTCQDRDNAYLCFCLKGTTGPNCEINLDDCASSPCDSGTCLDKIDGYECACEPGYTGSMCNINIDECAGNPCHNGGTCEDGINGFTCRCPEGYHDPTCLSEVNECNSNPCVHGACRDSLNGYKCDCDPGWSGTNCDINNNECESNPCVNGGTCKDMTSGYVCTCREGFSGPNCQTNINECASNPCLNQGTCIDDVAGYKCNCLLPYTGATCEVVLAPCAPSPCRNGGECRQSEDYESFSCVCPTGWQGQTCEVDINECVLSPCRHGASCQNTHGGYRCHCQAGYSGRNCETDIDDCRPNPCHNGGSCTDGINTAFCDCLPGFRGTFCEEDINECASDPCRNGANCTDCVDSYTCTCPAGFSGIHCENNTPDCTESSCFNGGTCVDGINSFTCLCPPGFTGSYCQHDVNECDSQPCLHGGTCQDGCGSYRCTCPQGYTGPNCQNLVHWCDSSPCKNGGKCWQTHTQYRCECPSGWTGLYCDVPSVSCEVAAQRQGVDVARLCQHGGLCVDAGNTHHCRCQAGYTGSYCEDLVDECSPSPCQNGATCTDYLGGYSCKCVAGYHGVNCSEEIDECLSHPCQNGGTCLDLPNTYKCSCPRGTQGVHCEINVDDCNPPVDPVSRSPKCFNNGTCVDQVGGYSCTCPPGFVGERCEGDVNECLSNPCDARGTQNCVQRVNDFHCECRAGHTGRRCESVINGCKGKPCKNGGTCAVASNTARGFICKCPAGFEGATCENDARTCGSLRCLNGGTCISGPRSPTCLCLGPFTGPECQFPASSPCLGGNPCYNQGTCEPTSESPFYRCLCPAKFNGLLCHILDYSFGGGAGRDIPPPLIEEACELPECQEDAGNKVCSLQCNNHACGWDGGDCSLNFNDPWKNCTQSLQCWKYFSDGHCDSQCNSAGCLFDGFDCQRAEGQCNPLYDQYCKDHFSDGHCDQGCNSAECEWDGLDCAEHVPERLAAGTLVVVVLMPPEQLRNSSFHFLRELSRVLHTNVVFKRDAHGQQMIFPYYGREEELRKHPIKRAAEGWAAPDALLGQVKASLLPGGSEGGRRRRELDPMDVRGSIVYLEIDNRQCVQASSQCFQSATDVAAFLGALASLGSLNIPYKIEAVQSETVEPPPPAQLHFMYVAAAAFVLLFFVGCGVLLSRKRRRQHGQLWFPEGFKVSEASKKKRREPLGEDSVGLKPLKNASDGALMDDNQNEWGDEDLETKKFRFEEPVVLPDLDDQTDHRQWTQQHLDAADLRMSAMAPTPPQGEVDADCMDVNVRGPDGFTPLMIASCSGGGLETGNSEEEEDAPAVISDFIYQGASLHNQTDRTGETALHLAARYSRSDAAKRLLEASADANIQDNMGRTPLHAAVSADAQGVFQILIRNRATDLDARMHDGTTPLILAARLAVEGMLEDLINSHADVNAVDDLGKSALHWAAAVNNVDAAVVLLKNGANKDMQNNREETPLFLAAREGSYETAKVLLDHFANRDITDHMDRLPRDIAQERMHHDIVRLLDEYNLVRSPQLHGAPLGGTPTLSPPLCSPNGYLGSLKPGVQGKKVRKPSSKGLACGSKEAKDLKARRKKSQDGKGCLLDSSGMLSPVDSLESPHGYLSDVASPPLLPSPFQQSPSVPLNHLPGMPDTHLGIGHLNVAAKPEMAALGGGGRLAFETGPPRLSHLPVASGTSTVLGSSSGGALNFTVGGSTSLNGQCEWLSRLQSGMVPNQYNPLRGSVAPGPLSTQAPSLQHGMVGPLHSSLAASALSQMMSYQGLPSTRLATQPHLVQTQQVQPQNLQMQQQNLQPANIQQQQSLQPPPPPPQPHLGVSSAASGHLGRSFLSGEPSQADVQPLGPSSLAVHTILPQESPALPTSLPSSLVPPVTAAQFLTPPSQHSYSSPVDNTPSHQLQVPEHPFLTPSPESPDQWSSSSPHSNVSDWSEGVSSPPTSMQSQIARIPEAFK

In the experiment the target is human Notch 1 (Homo sapiens, UniProt P46531). The settings on record: read-out: Notch 1 (IC50); HeLa cells co-transfected with truncated Notch 1 and CBF1 luciferase reporter; 18 hours incubation.
The IC50 is the concentration that gives 50% inhibition. For the compound `Cc1cccc(C2=N[C@H](NC(=O)[C@H](CCC(F)(F)F)[C@H](CCC(F)(F)F)C(N)=O)C(=O)Nc3c2cccc3C(F)(F)F)c1` [Example 9, (2R,3S)—N-((3S)-5-(3-Methylphenyl)-2-oxo-9-(trifluoromethyl)-2,3-dihydro-1H-1,4-benzodiazepin-3-yl)-2,3-bis(3,3,3-trifluoropropyl)succinamide], the IC50 was 3 nM.
Take `Cc1cccc2c1NC(=O)[C@@H](NC(=O)[C@H](CCC(F)(F)F)[C@H](CCCC(F)(F)F)C(N)=O)N=C2c1cccc(Cl)c1` [Example 8, (2R,3S)—N-((3S)-5-(3-Chlorophenyl)-9-methyl-2-oxo-2,3-dihydro-1H-1,4-benzodiazepin-3-yl)-3-(4,4,4-trifluorobutyl)-2-(3,3,3-trifluoropropyl)succinamide]: the concentration for half-maximal inhibition (IC50) was determined as 6 nM.
`Cc1cccc2c1NC(=O)[C@@H](NC(=O)[C@H](CCC(F)(F)F)[C@H](CCC(F)(F)F)C(N)=O)N=C2c1cccc(F)c1` [Example 1, (2R,3S)—N-((3S)-5-(3-Fluorophenyl)-9-methyl-2-oxo-2,3-dihydro-1H-1,4-benzodiazepin-3-yl)-2,3-bis(3,3,3-trifluoropropyl)succinamide]: the IC50 turned out to be 7.8 nM.
On to `Cc1cccc(C2=N[C@H](NC(=O)[C@H](CCC(F)(F)F)[C@H](CCCC(F)(F)F)C(N)=O)C(=O)Nc3c(OC4CC4)cccc32)c1` [Example 14, (2R,3S)—N-((3S)-9-(Cyclopropyloxy)-5-(3-methylphenyl)-2-oxo-2,3-dihydro-1H-1,4-benzodiazepin-3-yl)-3-(4,4,4-trifluorobutyl)-2-(3,3,3-trifluoropropyl)succinamide], for which the concentration for half-maximal inhibition (IC50) worked out at 7.7 nM.
In the case of `Cc1cccc2c1NC(=O)[C@@H](NC(=O)[C@H](CCC(F)(F)F)[C@H](CCC(F)(F)F)C(N)=O)N=C2c1ccccc1` [Example 23, (2R,3S)—N-((3S)-9-Methyl-2-oxo-5-phenyl-2,3-dihydro-1H-1,4-benzodiazepin-3-yl)-2,3-bis(3,3,3-trifluoropropyl)succinamide], the concentration for half-maximal inhibition (IC50) was found to be 4.7 nM.
In the case of `Cc1cccc2c1NC(=O)[C@@H](NC(=O)[C@H](CCC(F)(F)F)[C@H](CCC(F)(F)F)C(N)=O)N=C2c1ccc(F)cc1` [Example 22, (2R,3S)—N-((3S)-5-(4-Fluorophenyl)-9-methyl-2-oxo-2,3-dihydro-1H-1,4-benzodiazepin-3-yl)-2,3-bis(3,3,3-trifluoropropyl)succinamide], the IC50 is 3.1 nM.
Consider `CCc1cccc2c1NC(=O)[C@@H](NC(=O)[C@H](CCC(F)(F)F)[C@H](CCC(F)(F)F)C(N)=O)N=C2c1cccc(C)c1` [Example 6, (2R,3S)—N-((3S)-9-Ethyl-5-(3-methylphenyl)-2-oxo-2,3-dihydro-1H-1,4-benzodiazepin-3-yl)-2,3-bis(3,3,3-trifluoropropyl)succinamide], for which the IC50 was 7.2 nM.
Consider `COc1cccc2c1NC(=O)[C@@H](NC(=O)[C@H](CCC(F)(F)F)[C@H](CCC(F)(F)F)C(N)=O)N=C2c1ccc(C(F)(F)F)cn1` [Example 33, (2R,3S)—N-((3S)-9-Methoxy-2-oxo-5-(5-(trifluoromethyl)-2-pyridinyl)-2,3-dihydro-1H-1,4-benzodiazepin-3-yl)-2,3-bis(3,3,3-trifluoropropyl)succinamide], for which the IC50 was 4.3 nM.
As for `Cc1cc(C)cc(C2=N[C@H](NC(=O)[C@H](CCC(F)(F)F)[C@H](CCC(F)(F)F)C(N)=O)C(=O)Nc3c(Cl)cccc32)c1` [Example 10, (2R,3S)—N-((3S)-9-Chloro-5-(3,5-dimethylphenyl)-2-oxo-2,3-dihydro-1H-1,4-benzodiazepin-3-yl)-2,3-bis(3,3,3-trifluoropropyl)succinamide], the half-inhibitory concentration (IC50) stood at 2.5 nM.
As for `Cc1cccc2c1NC(=O)[C@@H](NC(=O)[C@H](CCC(F)(F)F)[C@H](CCC(F)(F)F)C(N)=O)N=C2c1cccc(C(F)(F)F)c1` [Example 20, (2R,3S)—N-((3S)-9-Methyl-2-oxo-5-(3-(trifluoromethyl)phenyl)-2,3-dihydro-1H-1,4-benzodiazepin-3-yl)-2,3-bis(3,3,3-trifluoropropyl)succinamide], the IC50 is 1.6 nM.
On to `NC(=O)[C@@H](CCC(F)(F)F)[C@@H](CCC(F)(F)F)C(=O)N[C@H]1N=C(c2cccc(F)c2)c2cccc(CO)c2NC1=O` [Example 37, (2R,3S)—N-((3S)-5-(3-Fluorophenyl)-9-(hydroxymethyl)-2-oxo-2,3-dihydro-1H-1,4-benzodiazepin-3-yl)-2,3-bis(3,3,3-trifluoropropyl)succinamide], for which the half-inhibitory concentration (IC50) is 6.2 nM.
As for `Cc1ccc(C2=N[C@H](NC(=O)[C@H](CCC(F)(F)F)[C@H](CCCC(F)(F)F)C(N)=O)C(=O)Nc3c(Cl)cccc32)cc1C` [Example 4, (2R,3S)—N-(9-Chloro-5-(3,4-dimethylphenyl)-2-oxo-2,3-dihydro-1H-1,4-benzodiazepin-3-yl)-3-(4,4,4-trifluorobutyl)-2-(3,3,3-trifluoropropyl)succinamide], the figure is 8.5 nM; as for `COc1cccc2c1NC(=O)[C@@H](NC(=O)[C@H](CCC(F)(F)F)[C@H](CCC(F)(F)F)C(N)=O)N=C2c1cccc(Cl)c1` [Example 26, (2R,3S)—N-((3S)-5-(3-Chlorophenyl)-9-methoxy-2-oxo-2,3-dihydro-1H-1,4-benzodiazepin-3-yl)-2,3-bis(3,3,3-trifluoropropyl)succinamide], 3.7 nM; as for `NC(=O)[C@@H](CCCC(F)(F)F)[C@@H](CCC(F)(F)F)C(=O)N[C@H]1N=C(c2ccccc2)c2cccc(OC3CC3)c2NC1=O` [Example 16, (2R,3S)—N-((3S)-9-(Cyclopropyloxy)-2-oxo-5-phenyl-2,3-dihydro-1H-1,4-benzodiazepin-3-yl)-3-(4,4,4-trifluorobutyl)-2-(3,3,3-trifluoropropyl)succinamide], 5.8 nM.
As for `CCc1cccc2c1NC(=O)[C@@H](NC(=O)[C@H](CCC(F)(F)F)[C@H](CCC(F)(F)F)C(N)=O)N=C2c1cccc(Cl)c1` [Example 2, (2R,3S)—N-((3S)-5-(3-Chlorophenyl)-9-ethyl-2-oxo-2,3-dihydro-1H-1,4-benzodiazepin-3-yl)-2,3-bis(3,3,3-trifluoropropyl)succinamide], the IC50 stood at 4.9 nM.
Turning to `Cc1cccc(C2=N[C@H](NC(=O)[C@H](CCC(F)(F)F)[C@H](CCC(F)(F)F)C(N)=O)C(=O)Nc3c(Cl)cccc32)c1` [Example 28, (2R,3S)—N-((3S)-9-Chloro-5-(3-methylphenyl)-2-oxo-2,3-dihydro-1H-1,4-benzodiazepin-3-yl)-2,3-bis(3,3,3-trifluoropropyl)succinamide], the IC50 was 4.8 nM.
`Cc1ccc(C2=N[C@H](NC(=O)[C@H](CCC(F)(F)F)[C@H](CCC(F)(F)F)C(N)=O)C(=O)Nc3ccccc32)cc1` [Example 36, (2R,3S)—N-((3S)-5-(4-Methylphenyl)-2-oxo-2,3-dihydro-1H-1,4-benzodiazepin-3-yl)-2,3-bis(3,3,3-trifluoropropyl)succinamide]: the 50% inhibitory concentration (IC50) turned out to be 12.2 nM.
In the case of `Cc1cccc(C2=N[C@H](NC(=O)[C@H](CCC(F)(F)F)[C@H](CCCC(F)(F)F)C(N)=O)C(=O)Nc3c(Cl)cccc32)c1` [Example 17, (2R,3S)—N-((3S)-9-Chloro-5-(3-methylphenyl)-2-oxo-2,3-dihydro-1H-1,4-benzodiazepin-3-yl)-3-(4,4,4-trifluorobutyl)-2-(3,3,3-trifluoropropyl)succinamide], the IC50 turned out to be 5.7 nM.
As for `NC(=O)[C@@H](CCC(F)(F)F)[C@@H](CCC(F)(F)F)C(=O)N[C@H]1N=C(c2ccccc2)c2cccc(C3CC3)c2NC1=O` [Example 24, (2R,3S)—N-((3S)-9-Cyclopropyl-2-oxo-5-phenyl-2,3-dihydro-1H-1,4-benzodiazepin-3-yl)-2,3-bis(3,3,3-trifluoropropyl)succinamide], the IC50 came out at 1.4 nM.
With `Cc1cc(C)cc(C2=N[C@H](NC(=O)[C@H](CCC(F)(F)F)[C@H](CCCC(F)(F)F)C(N)=O)C(=O)Nc3c(Cl)cccc32)c1` [Example 5, (2R,3S)—N-(9-Chloro-5-(3,5-dimethylphenyl)-2-oxo-2,3-dihydro-1H-1,4-benzodiazepin-3-yl)-3-(4,4,4-trifluorobutyl)-2-(3,3,3-trifluoropropyl)succinamide], the IC50 turned out to be 2.3 nM.
`NC(=O)[C@@H](CCC(F)(F)F)[C@@H](CCC(F)(F)F)C(=O)N[C@H]1N=C(c2cccc(C3CC3)c2)c2cccc(Cl)c2NC1=O` [Example 25, (2R,3S)—N-((3S)-9-Chloro-5-(3-cyclopropylphenyl)-2-oxo-2,3-dihydro-1H-1,4-benzodiazepin-3-yl)-2,3-bis(3,3,3-trifluoropropyl)succinamide]: the 50% inhibitory concentration (IC50) was 1.7 nM.
Turning to `CC(C)c1cccc2c1NC(=O)[C@@H](NC(=O)[C@H](CCC(F)(F)F)[C@H](CCC(F)(F)F)C(N)=O)N=C2c1cccc(Cl)c1` [Example 3, (2R,3S)—N-((3S)-5-(3-Chlorophenyl)-9-isopropyl-2-oxo-2,3-dihydro-1H-1,4-benzodiazepin-3-yl)-2,3-bis(3,3,3-trifluoropropyl)succinamide], the half-maximal inhibitory concentration (IC50) is 1.8 nM.
As for `NC(=O)[C@@H](CCC(F)(F)F)[C@@H](CCC(F)(F)F)C(=O)N[C@H]1N=C(c2ccccc2)c2cccc(OC3CC3)c2NC1=O` [Example 19, (2R,3S)—N-((3S)-9-(Cyclopropyloxy)-2-oxo-5-phenyl-2,3-dihydro-1H-1,4-benzodiazepin-3-yl)-2,3-bis(3,3,3-trifluoropropyl)succinamide], the figure is 4.8 nM.
Regarding `Cc1cccc2c1NC(=O)[C@@H](NC(=O)[C@H](CCC(F)(F)F)[C@H](CCCC(F)(F)F)C(N)=O)N=C2c1cccc(C(F)(F)F)c1` [Example 18, (2R,3S)—N-((3S)-9-Methyl-2-oxo-5-(3-(trifluoromethyl)phenyl)-2,3-dihydro-1H-1,4-benzodiazepin-3-yl)-3-(4,4,4-trifluorobutyl)-2-(3,3,3-trifluoropropyl)succinamide], the 50% inhibitory concentration (IC50) turned out to be 4.6 nM.
Turning to `Cc1ccccc1C1=N[C@H](NC(=O)[C@H](CCC(F)(F)F)[C@H](CCC(F)(F)F)C(N)=O)C(=O)Nc2c(Cl)cccc21` [Example 21, (2R,3S)—N-((3S)-9-Chloro-5-(2-methylphenyl)-2-oxo-2,3-dihydro-1H-1,4-benzodiazepin-3-yl)-2,3-bis(3,3,3-trifluoropropyl)succinamide], the IC50 came out at 3.3 nM.
